Source: patent US9433687B2, “Anti-Notch3 antibodies and antibody-drug conjugates” (Pfizer Inc., priority 2012, dated 2016)

Assays:
[1] = system: MDA-MB-468 (breast cancer); assay: In vitro cytotoxicity (MTS), MDA-MB-468; type: cell-based, human; conditions: Table 14; LP = lacked potency
Description: The effects of anti-Notch3 ADCs were assessed on 1) cell lines endogenously expressing Notch3 protein: HCC2429 (lung cancer), OVCAR3 (ovarian cancer) and MDA-MB-468 (breast cancer), 2) cell lines engineered to over-express full length human Notch3 protein: MDA-MB-468/hNotch3 and U2OS/hNotch3, and 3) a negative control cell line (SW900) using an MTS cellular viability indicator (Promega, Madison, Wis.). These cell lines were cultured with increasing concentrations of anti-Notch3 ADCs comprising rat-human chimeric anti-Notch3 antibodies, ch28 and ch75, and humanized anti-Notch3 antibodies, hu28 and hu75, conjugated to various linker-payload combinations of the present invention. As a specificity control for the anti-Notch3-ADCs, non-targeted control-ADCs (huNeg8.8-ADCs or ch2H6-ADCs) were also tested on the same cell lines. After four days, viability of each culture was assessed. IC50 values were calculated by logistic non-linear regression, model #203 with XL fit v4.2 (IDBS, Guildford, Surry, UK) and presented as ng Ab/mL. The drug antibody ratio (DAR) is also provided.

HCC2429 lung xenografts = assay: HCC2429 lung xenograft model (ADCs); type: in vivo, mouse
Description: Similar in vivo experiments were performed with the HCC2429 lung cancer cell line as described above. To generate xenografts, nude (Nu/Nu) female mice were implanted subcutaneously with 3.5×10^6 HCC2429 cells in 50% Matrigel (BD Biosciences).
The HCC2429 lung model was also dosed intravenously Q4d×4 with PBS vehicle, rat-human chimeric anti-Notch3 ADCs and control huNeg-8.8 ADCs, at a dose of 5 mg/kg as provided in FIG. 16A.

B1: hu75-vc0101: hu75 conjugated to vc0101 linker-payload (conjugate)
heavy: EVQLVESGGGLVQPGGSLRLSCAASGYAFTDYWMTWVRQAPGKGLEWVAEISPNSGGTNFNEKFKGRFTISVDNAKNSLYLQMNSLRAEDTAVYYCARGEIRYNWFAYWGQGTLVTVSSASTKGPSVFPLAPSSKSTSGGTAALGCLVKDYFPEPVTVSWNSGALTSGVHTFPAVLQSSGLYSLSSVVTVPSSSLGTQTYICNVNHKPSNTKVDKKV[letters of human IgG1 Fc omitted]
light: DIQMTQSPSSLSASVGDRVTITCKASQNVGNNIAWYQQKPGKAPKLLIYYASNRYTGVPSRFSGSGYGTDFTLTISSLQPEDFATYYCQRLYNSPFTFGGGTKVEIKRTVAAPSVFIFPPSDEQLKSGTASVVCLLNNFYPREAKVQWKVDNALQSGNSQESVTEQDSKDSTYSLSSTLTLSKADYEKHKVYACEVTHQGLSSPVTKSFNRGEC
Q: Which results are given for B1?
A: IC50 (ng Ab/mL), MDA-MB-468 [1]: 7001 ng Ab/mL; tumor volume (HCC2429 lung xenografts; Day 1, 0.3 mg/kg iv Q4dx4): 524 mm^3; tumor volume (HCC2429 lung xenografts; Day 1, 1 mg/kg iv Q4dx4): 548 mm^3; tumor volume (HCC2429 lung xenografts; Day 1, 3 mg/kg iv Q4dx4): 498 mm^3; tumor volume (HCC2429 lung xenografts; Day 3, 0.3 mg/kg iv Q4dx4): 713 mm^3; tumor volume (HCC2429 lung xenografts; Day 3, 1 mg/kg iv Q4dx4): 753 mm^3; tumor volume (HCC2429 lung xenografts; Day 3, 3 mg/kg iv Q4dx4): 498 mm^3; tumor volume (HCC2429 lung xenografts; Day 6, 0.3 mg/kg iv Q4dx4): 1078 mm^3; tumor volume (HCC2429 lung xenografts; Day 6, 1 mg/kg iv Q4dx4): 1096 mm^3; tumor volume (HCC2429 lung xenografts; Day 6, 3 mg/kg iv Q4dx4): 469 mm^3; tumor volume (HCC2429 lung xenografts; Day 8, 0.3 mg/kg iv Q4dx4): 1499 mm^3; tumor volume (HCC2429 lung xenografts; Day 8, 1 mg/kg iv Q4dx4): 1428 mm^3; tumor volume (HCC2429 lung xenografts; Day 8, 3 mg/kg iv Q4dx4): 407 mm^3; tumor volume (HCC2429 lung xenografts; Day 10, 0.3 mg/kg iv Q4dx4): 1830 mm^3; tumor volume (HCC2429 lung xenografts; Day 10, 1 mg/kg iv Q4dx4): 1611 mm^3; tumor volume (HCC2429 lung xenografts; Day 10, 3 mg/kg iv Q4dx4): 370 mm^3; tumor volume (HCC2429 lung xenografts; Day 13, 0.3 mg/kg iv Q4dx4): 2408 mm^3; tumor volume (HCC2429 lung xenografts; Day 13, 1 mg/kg iv Q4dx4): 1803 mm^3; tumor volume (HCC2429 lung xenografts; Day 13, 3 mg/kg iv Q4dx4): 273 mm^3; tumor volume (HCC2429 lung xenografts; Day 15, 1 mg/kg iv Q4dx4): 1871 mm^3; tumor volume (HCC2429 lung xenografts; Day 15, 3 mg/kg iv Q4dx4): 298 mm^3; tumor volume (HCC2429 lung xenografts; Day 17, 1 mg/kg iv Q4dx4): 1948 mm^3; tumor volume (HCC2429 lung xenografts; Day 17, 3 mg/kg iv Q4dx4): 250 mm^3; tumor volume (HCC2429 lung xenografts; Day 20, 3 mg/kg iv Q4dx4): 177 mm^3; tumor volume (HCC2429 lung xenografts; Day 23, 3 mg/kg iv Q4dx4): 160 mm^3; tumor volume (HCC2429 lung xenografts; Day 27, 3 mg/kg iv Q4dx4): 174 mm^3; tumor volume (HCC2429 lung xenografts; Day 30, 3 mg/kg iv Q4dx4): 196 mm^3; tumor volume (HCC2429 lung xenografts; Day 34, 3 mg/kg iv Q4dx4): 295 mm^3; tumor volume (HCC2429 lung xenografts; Day 37, 3 mg/kg iv Q4dx4): 433 mm^3; tumor volume (HCC2429 lung xenografts; Day 41, 3 mg/kg iv Q4dx4): 606 mm^3; tumor volume (HCC2429 lung xenografts; Day 45, 3 mg/kg iv Q4dx4): 836 mm^3; tumor volume (HCC2429 lung xenografts; Day 49, 3 mg/kg iv Q4dx4): 732 mm^3; tumor volume (HCC2429 lung xenografts; Day -1, 0.3 mg/kg iv Q4dx4): 247 mm^3; tumor volume (HCC2429 lung xenografts; Day -1, 1 mg/kg iv Q4dx4): 246 mm^3; tumor volume (HCC2429 lung xenografts; Day -1, 3 mg/kg iv Q4dx4): 245 mm^3
